# Only a part is listed here, and it is no random draw. Some structures show a salt or complex split into parts, the way the source records it. The source made the active and inactive calls.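 The calls were made as follows: active = inhibition above the mean of compounds falling within the control limits plus 3 SD of them (cut at about 14% in these data); inactive = the rest.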
# The chains behind the UniProt entries cited, without tags or fusion partners.
# UniProt P02675, whole entry, looked up: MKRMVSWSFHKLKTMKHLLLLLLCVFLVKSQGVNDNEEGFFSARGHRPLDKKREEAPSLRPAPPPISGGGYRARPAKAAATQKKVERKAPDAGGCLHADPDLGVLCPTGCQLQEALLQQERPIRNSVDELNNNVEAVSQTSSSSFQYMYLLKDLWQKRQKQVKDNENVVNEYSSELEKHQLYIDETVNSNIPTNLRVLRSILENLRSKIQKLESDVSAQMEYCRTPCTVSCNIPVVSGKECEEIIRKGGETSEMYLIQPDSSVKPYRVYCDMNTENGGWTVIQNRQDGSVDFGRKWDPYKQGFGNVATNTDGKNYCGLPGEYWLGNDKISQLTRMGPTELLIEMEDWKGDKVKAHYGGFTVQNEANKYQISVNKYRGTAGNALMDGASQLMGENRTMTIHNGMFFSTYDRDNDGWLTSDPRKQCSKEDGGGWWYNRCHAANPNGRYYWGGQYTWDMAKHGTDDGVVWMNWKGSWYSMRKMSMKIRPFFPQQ
# Target: Fibrinogen beta chain (Homo sapiens) (UniProt P02675)
# Assay: inhibitors of Tn7 peptide binding to fibrin DD(E), primary screen, biochemical, fluorescence polarization, human fibrin, Tn7 probe (AID 720508);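 also: 0% = plate median of compound wells and 100% = 10 µM Aha-Tn7 peptide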
# Conditions: FP displacement of FITC-Tn7 peptide from fibrin DD(E); at 8.3 µM; active compounds read high; 0% = median of compound wells per plate
row,SMILES,inhibition
1,O=[N+]([O-])c1cc([N+](=O)[O-])c(O)c([N+](=O)[O-])c1.c1ccc(Oc2ccncc2)cc1,inactive: 1.69%
2,CCOC(=O)c1ccc(NP(C)(=O)Oc2ccc(OC)cc2)cc1 (centres undefined),inactive: -6.6%
3,CCOP(C)(=S)SCC(=O)NC(C)C(=O)O (centres undefined),inactive: 7.24%
4,CP(=O)(Nc1ccccn1)Oc1ccc(Cl)cc1 (centres undefined),inactive: 4.09%
5,CP(=O)(Oc1ccccc1)OC(c1ccccc1)C(F)(F)F (centres undefined),inactive: 6.74%
6,CP(=O)(Nc1ccc(SC(F)(F)F)cc1)Oc1ccc(Cl)cc1 (centres undefined),inactive: -2.35%
7,Cc1cccc(C)c1OP(C)(=O)Nc1ccc(SC(F)(F)F)cc1 (centres undefined),inactive: 10.1%
8,Cc1cc(C)cc(OP(C)(=O)Nc2ccc(SC(F)(F)F)cc2)c1 (centres undefined),inactive: 4.26%
9,CCc1ccc(OP(C)(=O)N2CCN(c3ccc([N+](=O)[O-])cc3)CC2)cc1 (centres undefined),inactive: -1.05%
10,CP(=O)(NC(=O)Nc1ccccc1)Oc1ccccc1 (centres undefined),inactive: -2.6%
11,CP(=S)(Nn1cnnc1)Oc1ccccc1 (centres undefined),inactive: -5.75%
12,CP(=O)(Nc1ccccc1Br)Oc1ccccc1 (centres undefined),inactive: 3%
13,COc1ccccc1OP(C)(=O)Nc1ccccc1 (centres undefined),inactive: 4.35%
14,Cc1ccc(NP(C)(=O)Oc2ccccc2)c(C)c1 (centres undefined),inactive: 3.54%
15,COc1ccccc1OP(C)(=O)Nc1ccc(C)cc1 (centres undefined),inactive: -0.67%
16,CCOC(=O)c1ccc(NP(C)(=O)Oc2ccccc2)cc1 (centres undefined),inactive: 2%
17,Cc1cc(C)cc(OP(C)(N)=O)c1 (centres undefined),inactive: 7.48%
18,COc1ccc(OP(C)(=O)Nc2cccc(F)c2)cc1 (centres undefined),inactive: -1.1%
19,COc1ccccc1OP(C)(=O)Nc1cc(Cl)ccc1C (centres undefined),inactive: -8.61%
20,O=[N+]([O-])c1cc([N+](=O)[O-])c(Nc2cccnc2)c([N+](=O)[O-])c1,inactive: -13.4%
21,O=[N+]([O-])c1ccc2c(c1)C=Nc1ccccc1O2,inactive: 0.12%
22,Cc1cccc(C)c1OP(C)(N)=O (centres undefined),inactive: 1.78%
23,CC(C)(C)c1ccc(OP(C)(=O)Nc2ccc(SC(F)(F)F)cc2)cc1 (centres undefined),inactive: 2.75%
24,COc1ccccc1-c1ccccn1.O=[N+]([O-])c1cc([N+](=O)[O-])c(O)c([N+](=O)[O-])c1,inactive: 4.17%
25,CCN(CC)CCCOC(=O)C(O)(c1ccccc1)c1ccccc1,inactive: -0.88%

row,SMILES,inhibition
1,Cc1ccc(C)c(NP(C)(=O)Oc2ccccc2)c1 (centres undefined),inactive: 1.08%
2,CP(=O)(Nc1cccc(Br)c1)Oc1ccccc1 (centres undefined),inactive: -1.15%
3,Cc1cc(C)cc(OP(C)(=O)Nc2ccccn2)c1 (centres undefined),inactive: 7.03%
4,COc1ccccc1OP(C)(=O)Nc1cccc(Br)c1 (centres undefined),inactive: 6.34%
5,CCOC(=O)c1ccc(NP(C)(=O)Oc2cc(C)cc(C)c2)cc1 (centres undefined),inactive: -7.48%
6,Cc1cc(C)cc(OP(C)(=O)Nc2ccc(C)cc2C)c1 (centres undefined),inactive: -6.27%
7,CC1=NCCc2c1[nH]c1ccccc21.O=[N+]([O-])c1cc([N+](=O)[O-])c(O)c([N+](=O)[O-])c1,inactive: -5.63%
8,O=C(O)c1cccc(Nc2c([N+](=O)[O-])cc([N+](=O)[O-])cc2[N+](=O)[O-])c1,inactive: -1.3%
9,CN1CCCCC1COC(=O)C1(O)c2ccccc2CCc2ccccc21 (centres undefined),inactive: 0.08%
10,COc1ccccc1OP(C)(=O)Nc1c(C)cccc1C (centres undefined),inactive: -7.06%
11,COc1ccc(-c2ccccn2)cc1.O=[N+]([O-])c1cc([N+](=O)[O-])c(O)c([N+](=O)[O-])c1,inactive: 4.1%
12,CP(=O)(Nc1ccc(SC(F)(F)F)cc1)Oc1ccccc1 (centres undefined),inactive: 2.32%
13,CCCOc1ccc(NP(C)(=O)Oc2ccc(Cl)cc2)cc1 (centres undefined),inactive: 1.67%
14,CCOC(=O)C(CC)C1=NC(C)(C)Cc2ccccc21.O=[N+]([O-])c1cc([N+](=O)[O-])c(O)c([N+](=O)[O-])c1 (centres undefined),inactive: 1.29%
15,O=[N+]([O-])c1cc([N+](=O)[O-])c(Nc2nnnn2CCO)c([N+](=O)[O-])c1,inactive: -2.51%
16,O=[N+]([O-])c1cc([N+](=O)[O-])c(-c2cnn(-c3ccccc3)c2)c([N+](=O)[O-])c1,inactive: 9.18%
17,Cc1nc2ccc3ccccc3c2s1.O=[N+]([O-])c1cc([N+](=O)[O-])c(O)c([N+](=O)[O-])c1,inactive: 4.94%
18,O=[N+]([O-])c1cc([N+](=O)[O-])c(-n2nnc3ccccc32)c([N+](=O)[O-])c1,inactive: 8.59%
19,CN(Cc1cccnc1)C(=O)COc1ccc(Cl)c(Cl)c1.O=[N+]([O-])c1cc([N+](=O)[O-])c(O)c([N+](=O)[O-])c1,inactive: 3.96%
20,CP(=O)(Nc1ccc2c(c1)OCCO2)Oc1ccccc1 (centres undefined),inactive: 5.87%
21,Cc1ccccc1NP(C)(=O)Nc1ccccc1C,inactive: -1.49%
22,O=[N+]([O-])c1cc([N+](=O)[O-])c(C(F)(F)F)c([N+](=O)[O-])c1O,inactive: 1.82%
23,CP(=O)(Nc1ccc(SC(F)(F)F)cc1)Oc1ccc(F)cc1 (centres undefined),inactive: -2.25%
24,CCOP(C)(=S)SCC(=O)NC(C)(CC)C(=O)O (centres undefined),inactive: 1.2%
25,CCOP(=O)(CC)OCC,inactive: 2.08%

row,SMILES,inhibition
1,O=[N+]([O-])c1ccc(OP2(=O)COCCO2)cc1 (centres undefined),inactive: -6.01%
2,Cc1cc(-c2cccc3ccccc23)c(C)cn1.O=[N+]([O-])c1cc([N+](=O)[O-])c(O)c([N+](=O)[O-])c1,inactive: -0.68%
3,O=[N+]([O-])c1cc([N+](=O)[O-])c(NCC2CCS(=O)(=O)C2)c([N+](=O)[O-])c1 (centres undefined),inactive: 4.36%
4,Cc1c(C(c2ccc3c(c2)OCO3)c2c(C)n(C)n(-c3ccccc3)c2=O)c(=O)n(-c2ccccc2)n1C.O=[N+]([O-])c1cc([N+](=O)[O-])c(O)c([N+](=O)[O-])c1,inactive: 5.6%
5,COc1ccc(OP(C)(=O)Nc2cccc(Br)c2)cc1 (centres undefined),inactive: -1.19%
6,CN(C)CCOC(=O)C(O)(c1ccccc1)C1CCCCC1 (centres undefined),inactive: -1.52%
7,COc1ccc(NP(C)(=O)Oc2ccccc2OC)cc1 (centres undefined),inactive: -12.1%
8,Cc1c([N+](=O)[O-])cc([N+](=O)[O-])c(Br)c1[N+](=O)[O-],inactive: -5.63%
9,CCN(CC)CCCOC(=O)C(O)(c1ccccc1)C1CCCCC1 (centres undefined),inactive: -6.97%
10,CP(=O)(Nc1ccccc1)Oc1ccc(F)cc1 (centres undefined),inactive: -4.62%
11,O=[N+]([O-])c1cc([N+](=O)[O-])c(OC2CCCCC2O)c([N+](=O)[O-])c1 (centres undefined),inactive: -3.8%
12,CCCCCOc1ccc(NP(C)(=O)Oc2ccc(Cl)cc2Cl)cc1 (centres undefined),inactive: -4.86%
13,CCN(CC)CCCNc1ccccc1[N+](=O)[O-].O=[N+]([O-])c1cc([N+](=O)[O-])c(O)c([N+](=O)[O-])c1,inactive: -2.74%
14,CCOC(=O)c1ccc(NP(C)(=O)Oc2ccc(F)cc2)cc1 (centres undefined),inactive: -1.9%
15,COc1ccc(OP(C)(=O)Nc2ccc(SC(F)(F)F)cc2)cc1 (centres undefined),inactive: 0.17%
16,O=C(OC1CN2CCC1CC2)c1ccc([N+](=O)[O-])cc1 (centres undefined),inactive: -3.26%
17,O=C(OCCN1CCN(CCOCc2ccccc2)CC1)C(O)(c1ccccc1)c1ccccc1,inactive: 4.4%
18,COc1ccc2c(c1O)-c1c(O)c(OC)cc3c1[C@H](C2)[N+](C)(C)CC3.O=[N+]([O-])c1cc([N+](=O)[O-])c([O-])c([N+](=O)[O-])c1[O-],inactive: -3.89%
19,O=[N+]([O-])c1cc([N+](=O)[O-])c(Nc2ccc(Cl)cc2)c([N+](=O)[O-])c1,inactive: 1.63%
20,CP(=O)(Nc1ccccc1F)Oc1ccccc1 (centres undefined),inactive: 0.44%
21,CC(C)c1ccc(OP(C)(=O)Nc2ccc(SC(F)(F)F)cc2)cc1 (centres undefined),inactive: 0.85%
22,O=[N+]([O-])c1cc([N+](=O)[O-])c(Nc2ccccn2)c([N+](=O)[O-])c1,inactive: -3.75%
23,Cc1c(NP(C)(=O)Oc2ccc(C(C)C)cc2)c(=O)n(-c2ccccc2)n1C (centres undefined),inactive: 8.25%
24,COc1ccccc1OP(C)(=O)Nc1ccc(C)cc1C (centres undefined),inactive: 0.74%
25,CP(=O)(Nc1ccccn1)Oc1ccccc1 (centres undefined),inactive: 5.87%

row,SMILES,inhibition
1,CCc1ccc(OP(C)(=O)O)cc1,inactive: -4.76%
2,COc1ccccc1OP(C)(=O)Nc1ccc(Br)cc1 (centres undefined),inactive: -2.77%
3,COc1ccc(OP(C)(=O)Nc2ccccn2)cc1 (centres undefined),inactive: 2.6%
4,CN(C)CCOC(=O)C(O)(c1ccccc1)C1CCCC1 (centres undefined),inactive: -9.74%
5,CP(=O)(OCCOc1ccccc1)OCCOc1ccccc1,inactive: 1.09%
6,CP(=O)(Nc1ccc(Cl)cc1Cl)Oc1ccccc1 (centres undefined),inactive: 4.27%
7,CCCCCCCCCCCCCCCC1C[N+](C)(C)CCOP(C)(=O)O1 (centres undefined),inactive: 0.09%
8,Cc1cc(C)cc(OP(C)(=O)Nc2cccc(C(F)(F)F)c2)c1 (centres undefined),inactive: 5.33%
9,O=C1C(O)=C([N+](=O)[O-])C(=O)C(O)=C1[N+](=O)[O-],inactive: -2.21%
10,COc1ccccc1OP(C)(=O)Nc1ccc(C)c(C)c1 (centres undefined),inactive: -1.31%
11,COc1ccc(OP(C)(=O)Nc2ccccc2Br)cc1 (centres undefined),inactive: -0.36%
12,Nc1ccc2c(ccc3cccnc32)n1.O=[N+]([O-])c1cc([N+](=O)[O-])c(O)c([N+](=O)[O-])c1,inactive: 6.66%
13,CCOC(=O)c1ccc(NP(C)(=O)Oc2ccc(Cl)cc2)cc1 (centres undefined),inactive: 0.42%
14,CP(=O)(OC12CC3CC(CC(C3)C1)C2)OC12CC3CC(CC(C3)C1)C2,inactive: 2.51%
15,CC(C)(C)c1ccc(OP(C)(=O)O)cc1,inactive: -4.01%
16,COc1ccccc1OP(C)(=O)Nc1ccccc1Br (centres undefined),inactive: -3.93%
17,CP(=O)(Nc1ccc(Cl)cc1)Oc1ccc(F)cc1 (centres undefined),inactive: 7.48%
18,CN(C)C(=O)c1c([N+](=O)[O-])cc([N+](=O)[O-])cc1[N+](=O)[O-],inactive: 4.21%
19,COc1ccc(OP(C)(=O)Nc2ccc(Br)cc2)cc1 (centres undefined),inactive: -0.87%
20,CCN(CC)CC(O)COC(=O)C(O)(c1ccccc1)C1CCCCC1 (centres undefined),inactive: -1.84%
21,O=C(OCCCN1CCCC1)C(O)(c1ccccc1)C1CCCCC1 (centres undefined),inactive: 7.26%
22,COc1ccccc1OP(C)(=O)Nc1c(C)n(C)n(-c2ccccc2)c1=O (centres undefined),inactive: 1.32%
23,CCc1ccc(OP(C)(=O)Nc2cccnc2)cc1 (centres undefined),inactive: 1.73%
24,CP(=O)(Oc1ccccc1)N1CCOC1=O (centres undefined),inactive: 0.9%
